Measured values taken from patent publication US10059674B2, “Design, synthesis, and biological evaluation of 1-methyl-1, 4-dihyrdoindeno[1,2-C]pyrazole analogues as potential anticaner agents targeting tubulin colchicine binding site” (ACT PHARMA CO., LTD., priority 2016, dated 2018).

Tests used:
[1] = MDCK cell permeability test; details: dog, MDCK, 90 min; for Papp A→B at 90 min: Apparent permeability coefficient A→B; for Papp B→A at 90 min: Apparent permeability coefficient B→A
[2] = tested on: MDCK cells; assay: MDCK cell permeability test; details: MDCK cells
[3] = tested on: P-gp; assay: MDCK cell permeability test; details: dog, MDCK
[4] = 1st line of the compound (condition not given)
[5] = 2nd line of the compound (condition not given)

Papp A→B at 90 min [1, 4]: 5.42 ×10⁻⁶ cm/s
Papp A→B at 90 min [1, 5]: 33.4 ×10⁻⁶ cm/s
Papp B→A at 90 min [1, 4]: 75.5 ×10⁻⁶ cm/s
Papp B→A at 90 min [1, 5]: 22.6 ×10⁻⁶ cm/s
Permeability Judgment [2]: High
efflux ratio at 90 min [3]: 13.9
Structure (SMILES): CC(C)CN(C[C@@H](O)[C@H](Cc1ccccc1)NC(=O)O[C@H]1CCOC1)S(=O)(=O)c1ccc(N)cc1 [Amprenavir, amprenavir, reference compound]
